Sequences of proteins named here, by UniProt entry; tags and fusion partners are left off.
UniProt Q92793, whole entry: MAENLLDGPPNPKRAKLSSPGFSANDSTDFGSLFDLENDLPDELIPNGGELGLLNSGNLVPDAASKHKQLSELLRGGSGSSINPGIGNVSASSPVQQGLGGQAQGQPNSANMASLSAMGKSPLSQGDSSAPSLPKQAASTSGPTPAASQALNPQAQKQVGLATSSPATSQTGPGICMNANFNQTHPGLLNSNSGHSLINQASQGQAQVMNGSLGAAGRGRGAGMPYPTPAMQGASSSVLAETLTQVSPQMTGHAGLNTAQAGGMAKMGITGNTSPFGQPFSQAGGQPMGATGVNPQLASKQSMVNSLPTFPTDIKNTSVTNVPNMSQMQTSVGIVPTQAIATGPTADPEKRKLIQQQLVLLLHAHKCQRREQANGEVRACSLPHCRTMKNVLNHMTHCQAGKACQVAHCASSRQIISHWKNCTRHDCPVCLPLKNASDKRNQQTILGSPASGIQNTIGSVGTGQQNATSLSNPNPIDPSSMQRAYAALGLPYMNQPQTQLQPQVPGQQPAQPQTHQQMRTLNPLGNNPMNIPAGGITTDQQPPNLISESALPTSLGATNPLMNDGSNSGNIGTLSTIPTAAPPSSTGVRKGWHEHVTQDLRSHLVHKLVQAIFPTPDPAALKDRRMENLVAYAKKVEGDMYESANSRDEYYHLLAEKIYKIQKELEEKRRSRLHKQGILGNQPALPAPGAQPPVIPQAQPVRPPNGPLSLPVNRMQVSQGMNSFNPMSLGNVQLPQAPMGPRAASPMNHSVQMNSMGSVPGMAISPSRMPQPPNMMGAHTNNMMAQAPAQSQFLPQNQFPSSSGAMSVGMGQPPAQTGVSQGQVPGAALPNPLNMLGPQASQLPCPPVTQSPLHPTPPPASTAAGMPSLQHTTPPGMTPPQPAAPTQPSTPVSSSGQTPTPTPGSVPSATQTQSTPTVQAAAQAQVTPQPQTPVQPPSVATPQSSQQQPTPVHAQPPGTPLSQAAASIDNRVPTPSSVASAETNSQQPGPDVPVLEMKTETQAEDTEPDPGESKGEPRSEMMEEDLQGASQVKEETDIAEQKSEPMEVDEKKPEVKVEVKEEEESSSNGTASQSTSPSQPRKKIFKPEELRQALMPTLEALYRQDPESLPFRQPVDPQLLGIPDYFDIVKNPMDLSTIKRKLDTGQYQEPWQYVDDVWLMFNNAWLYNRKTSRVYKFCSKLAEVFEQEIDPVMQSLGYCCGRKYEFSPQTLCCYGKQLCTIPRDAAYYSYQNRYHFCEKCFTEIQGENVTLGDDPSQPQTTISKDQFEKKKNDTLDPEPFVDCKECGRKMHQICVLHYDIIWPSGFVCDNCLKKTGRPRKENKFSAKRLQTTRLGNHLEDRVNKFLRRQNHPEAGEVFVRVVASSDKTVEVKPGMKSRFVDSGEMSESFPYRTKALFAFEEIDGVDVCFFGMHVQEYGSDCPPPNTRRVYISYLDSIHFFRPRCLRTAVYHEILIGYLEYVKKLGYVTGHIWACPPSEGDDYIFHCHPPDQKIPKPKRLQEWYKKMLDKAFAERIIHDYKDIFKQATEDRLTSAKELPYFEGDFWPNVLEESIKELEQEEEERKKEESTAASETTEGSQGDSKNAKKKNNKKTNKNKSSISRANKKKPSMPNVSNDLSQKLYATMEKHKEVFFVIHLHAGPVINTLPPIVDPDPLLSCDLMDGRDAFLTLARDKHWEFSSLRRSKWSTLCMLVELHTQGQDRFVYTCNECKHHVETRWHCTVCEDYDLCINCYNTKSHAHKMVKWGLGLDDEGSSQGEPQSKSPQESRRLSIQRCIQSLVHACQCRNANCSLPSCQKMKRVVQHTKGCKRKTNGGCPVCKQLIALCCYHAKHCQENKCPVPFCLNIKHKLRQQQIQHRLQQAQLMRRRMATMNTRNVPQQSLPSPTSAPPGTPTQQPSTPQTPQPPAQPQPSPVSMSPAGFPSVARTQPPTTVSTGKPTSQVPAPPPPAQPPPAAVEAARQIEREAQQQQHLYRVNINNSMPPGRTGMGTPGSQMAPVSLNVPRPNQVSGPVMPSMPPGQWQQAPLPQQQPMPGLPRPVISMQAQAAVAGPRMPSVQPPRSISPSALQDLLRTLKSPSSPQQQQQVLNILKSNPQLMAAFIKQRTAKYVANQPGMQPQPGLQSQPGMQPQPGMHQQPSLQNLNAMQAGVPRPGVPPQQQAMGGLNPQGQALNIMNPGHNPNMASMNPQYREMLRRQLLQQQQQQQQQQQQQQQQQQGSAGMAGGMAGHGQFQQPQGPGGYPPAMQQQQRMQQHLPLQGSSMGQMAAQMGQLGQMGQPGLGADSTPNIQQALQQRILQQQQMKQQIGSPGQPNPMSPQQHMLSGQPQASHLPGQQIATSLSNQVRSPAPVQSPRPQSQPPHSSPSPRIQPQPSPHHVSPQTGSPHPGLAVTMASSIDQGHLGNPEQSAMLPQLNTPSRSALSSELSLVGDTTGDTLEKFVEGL

According to patent publication US11247989B2 (priority 2017, dated 2022):

Target: CBP (Homo sapiens (Human), UniProt Q92793)
Assay: biochemical

## COc1ccc(-c2nc3cccc(-c4nn(C5CCOCC5)c5c4CN(C(C)=O)CC5)c3o2)cc1 [Example 159]
  IC50: 4.11 nM
